Literature values in patent US10172581B2, “Methods of assessing tumor growth” (Dana-Farber Cancer Institute, Inc., priority 2013, dated 2019).

System: ALK-positive NSCLC
Conditions: ALK-positive NSCLC patients, trials; cited from earlier work

Which results are given for `C[C@@H](Oc1cc(-c2cnn(C3CCNCC3)c2)cnc1N)c1c(Cl)ccc(F)c1Cl` [crizotinib]?
overall disease control rate: ~90%; progression-free survival: 10 months; response rate: up to 61%
